Experiment [1] has as its target T1, recombinant human VISTA (His-tagged) (human, UniProt Q9H7M9 33-194).
T1 construct: bought soluble protein (Sino Biological); also called hVISTA; human VISTA polypeptide
The experiment can be described thus: BLI (Octet), 1:1 global fit, His-tagged human VISTA captured.

For a further experiment, the target named is T2, human CD47 (human, UniProt Q08722 19-139).
T2 construct: also called hCD47
The experiment can be described thus: BLI (Octet), His-tagged hCD47 on anti-Penta-HIS biosensor, antibody 1500-46.9 nM.

Experiment [2] deals with T3, mouse VISTA expressed on cells (mouse, UniProt Q9D659 33-308).
T3 construct: whole, on cells; also called murine VISTA on transfected cells; VISTA on mouse CD11b+ myeloid cells
T3 sequence (looked up): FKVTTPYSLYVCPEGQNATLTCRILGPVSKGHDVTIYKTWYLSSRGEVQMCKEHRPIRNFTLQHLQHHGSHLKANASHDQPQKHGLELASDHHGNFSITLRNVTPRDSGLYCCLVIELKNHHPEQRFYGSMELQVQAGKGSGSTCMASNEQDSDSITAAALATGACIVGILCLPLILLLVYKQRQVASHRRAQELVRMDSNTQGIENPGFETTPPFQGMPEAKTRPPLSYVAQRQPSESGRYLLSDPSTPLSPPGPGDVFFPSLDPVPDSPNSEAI
Put plainly: flow cytometry, HEK293-6E cells overexpressing mouse VISTA, FITC anti-human Fc.

This note sets out measurements from US20250313631A1 (HUMMINGBIRD BIOSCIENCE PTE, published 2025).

B1: VSTB112 IgG1 (antibody, V domains shown)
VH: QVQLVQSGAEVKKPGSSVKVSCKASGGTFSSYAISWVRQAPGQGLEWMGGIIPIFGTANYAQKFQGRVTITADESTSTAYMELSSLRSEDTAVYYCARSSYGWSYEFDYWGQGTLVTVSS
VL: DIQMTQSPSSLSASVGDRVTITCRASQSIDTRLNWYQQKPGKAPKLLIYSASSLQSGVPSRFSGSGSGTDFTLTISSLQPEDFATYYCQQSAYNPITFGQGTKVEIKR
For the molecule B1, the Kd in experiment [1] was less than 1 pM. For the same molecule, the binding result in the experiment with human CD47 was “no binding (tested: 1500 nM)”; in experiment [2] it was “no binding (tested: 1 ug/ml)”.
